Bioassay records from PubChem.
ALDH1A1 block: inhibitors of human aldehyde dehydrogenase 1A1. P00352. Purified ALDH1A1, NADH fluorescence, propionaldehyde substrate. Potency, µM (series often up to 75.3 µM), for inactives: at the highest dose activity, negative = inhibition, actives largely listed as inhibitors. 220,000 tested, 7.3% active. AID 1030; active = well fitted inhibition curve with a large enough effect, not every such curve was filed as active; inconclusive = small, poorly fitted or top-dose-only effect, or another doubt; inactive = no such curve, though single readings can be large or run the other way;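 also: potency is read from the fitted curve at half-maximal effect; plate controls were no enzyme wells and a reference inhibitor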
G9a inh: blocks human histone lysine methyltransferase G9a; AID 504332; G9a H3K9 monomethylation, AlphaScreen, 2 h; Potency, µM (series often up to 102 µM), inactives show at the highest dose activity, negative = inhibition, actives largely listed as inhibitors; Q96KQ7; 350,000 tested, 8.8% active; also: potency is read from the fitted curve at half-maximal effect; % is scaled to controls: 0 for no effect and ±100 for the full control effect; nearly all actives have a fitted effect of over 75% in size
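AlphaScreen detection with an anti-monomethyl H3K9 antibody quantified product after a 2 h room-temperature reaction containing 500 nM biotinylated H3K9 peptide, 20 µM SAM and 20 nM enzyme, which had been preincubated 15 min with compound.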
Sfp inh: qHTS Assay for Inhibitors of Bacillus subtilis Sfp phosphopantetheinyl transferase (PPTase); actives 3.5% (n = 310,000); AID 1490, 2009; Biochemical Sfp PPTase activity, qHTS; Potency, µM, for inactives: max response, negative = inhibition, usual class: inhibitors; 4'-phosphopantetheinyl transferase ffp (Bacillus subtilis), Q9F4F7; active means well fitted inhibition curve with a large enough effect; inconclusive means small, poorly fitted or top-dose-only effect, or another doubt; inactive means no such curve, though single readings can be large or run the other way;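 further: the enzyme is Sfp with the accession as filed and its product quenches rhodamine fluorescence; potency means the concentration at half of the fitted maximal effect; 0% = enzyme reaction without inhibitor and -100% = no enzyme wells; top concentration of the series not given in the record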
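Fluorescence-quenching assay: 15 nM Sfp-PPTase preincubated 15 min at room temperature with compound, then 5 uM rhodamine-CoA and 12.5 uM BHQ-2-labelled YbbR peptide added. Fluorescence (ex 525/em 598 nm) read at start and after 30 min; difference gives rate.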
miR-21 FLuc: raises the signal of a miR-21 reporter; HeLa miR-21 FLuc reporter, luciferase, 48 h; Potency, µM (top dose mostly 38.3 µM), for inactives: at the highest dose reporter change, positive = more light; AID 2288; 340,000 tested, under 10 active; active = well fitted rising curve with a large enough effect; inconclusive = small, poorly fitted or top-dose-only effect; inactive = no such curve, though single readings can be large or run the other way;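 note: % of control where 0% means no effect; miR-21 action dims this reporter so a rising signal means less miR-21 action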
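Luminescence from a firefly luciferase reporter carrying a miR-21 binding site downstream, stably expressed under a CMV promoter in HeLa cells that make miR-21 endogenously, reports miRNA modulation after 48 h compound exposure up to approximately 40uM final.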
JMJD2E inh: JMJD2E (human) inhibition; JMJD2E catalytic domain, FDH-coupled NADH fluorescence (FDH is formaldehyde dehydrogenase); Potency, µM (titrated, usually from 57.1 µM), without a hit: at the highest dose activity change, negative = inhibition, usual class: inhibitors; 230,000 tested, 1.6% active; AID 2147; active = well fitted inhibition curve with a large enough effect, not every such curve was filed as active; inconclusive = small, poorly fitted or top-dose-only effect, or another doubt; inactive = no such curve, though single readings can be large or run the other way;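 also: potency is read from the fitted curve at half-maximal effect; 0% = wells with enzyme and -100% = buffer wells without enzyme; nearly all actives have a fitted effect of over 50% in size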
Lamin A splicing: changes lamin A minigene splicing in HeLa cells; HeLa LMNA splicing GFP/RFP minigene ratio, 48 h; Potency, µM (highest dose often 46.1 µM), for inactives: at the top dose ratio change, negative = inhibition, hits mostly inhibitors; 200,000 tested, 0.01% active; AID 1487; active = well fitted inhibition curve with a large enough effect in the signal ratio, with a control signal flat, not every such curve was filed as active; inconclusive = small, poorly fitted or top-dose-only effect, or effect the other way, or a change in a side signal; the % refers to the signal ratio; also: potency is read from the fitted curve at half-maximal effect; % is scaled to controls: 0 for no effect and ±100 for the full control effect
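Read-out is the ratio of GFP to DsRed2 object intensity, acquired by 488 nm laser-scanning cytometry on HeLa lamin A-EGFP minigene reporter cells. Compound incubation 48 hrs at 37 °C in Opti-MEM with 2% FBS; DMSO 0.5% final.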
* = called active by the depositor; ? = inconclusive; nt = no result; [ ] = dose if it differs, or a comment. This is a sample that favours compounds with a hit; in the whole collection about 13% have one here. Unless noted, calls follow the shape of the dose curve; as a rule, active = well fitted curve in the direction sought with a large enough effect; inconclusive = small, poorly fitted or top-dose-only effect, or another doubt; inactive = no such curve, though single readings can be large; an effect the other way counts as inactive or inconclusive.

1	Cc1cc2c(c(=O)n1Cc1ccccn1)C(C(C)C)C(C#N)=C(N)O2 (stereo not drawn)
2	COc1cc(C2C(C#N)=C(N)Oc3cc(C)n(Cc4ccccn4)c(=O)c32)cc2c1OCO2 (stereo not drawn)
3	COc1cc(C2C(C#N)=C(N)Oc3cc(C)n(CC4CCCO4)c(=O)c32)cc2c1OCO2 (stereo not drawn)
4	CC1=C(C(=O)Nc2cccc(C(=O)NCc3ccccc3C)c2)SCCO1
5	CC[C@H]1C(O)C[C@H]2CCN3C(=O)CCC[C@H]1[C@H]23 (stereo partly drawn)
6	Cc1cc(S(=O)(=O)N2CCCC(N(C)CCc3ccccn3)C2)c(C)s1 (stereo not drawn)
7	O=C(c1ccc(C(F)(F)F)cc1)N1CCC(=O)N(C(COCc2ccc(Cl)cc2)Cc2ccccc2)CC1 (stereo not drawn)
8	O=C(c1ccc(Cl)c(Cl)c1)N1CCC(=O)N(C(COCc2cccc(C(F)(F)F)c2)Cc2ccccc2)CC1 (stereo not drawn)
9	O=C(c1ccc(C(F)(F)F)cc1)N1CCC(=O)N(C(COCc2ccccc2)Cc2ccccc2)CC1 (stereo not drawn)
10	CC(=O)c1c(C)[nH]c(C(=O)NCC2CCCCC2)c1C
assay / entry	1	2	3	4	5	6	7	8	9	10
ALDH1A1 block	3.7%	-0.6%	25.1µM*	nt	9.5%[120 µM]	nt	-7.7%	-0.2%	-10.7%	nt
G9a inh	-5.5%	50.1µM*	?	9.9%	25.5%[135 µM]	50.1µM*	-8.6%	50.1µM*	56.2µM*	39.8µM*
Sfp inh	29.6%	-19.2%	-28.7%	4.6%	6.9%	15.7%	6.0%	3.3%	3.2%	-5.8%
miR-21 FLuc	-4.7%	-10.1%	-0.2%	4.2%	nt	-1.7%	6.6%	1.6%	10.1%	-44.5%
JMJD2E inh	4.6%	-0.3%	-24.0%	nt	nt	nt	6.0%	5.1%	-1.2%	nt
Lamin A splicing	4.8%	17.2%	1.9%	nt	nt	nt	?	?	?	nt

11	COc1ccccc1C1NC(=O)c2n[nH]c(-c3cccs3)c21 (stereo not drawn)
12	CCOC(=O)C1(CC)NC(c2ccco2)C2C(=O)N(CC)C(=O)C21 (stereo not drawn)
13	CCOC(=O)C1(CC)NC(c2ccco2)C2C(=O)N(c3ccc(C)cc3)C(=O)C21 (stereo not drawn)
14	COc1cc(C(c2sc3nc(C)nn3c2O)N2CCN(c3ccccc3)CC2)cc(OC)c1OC (stereo not drawn)
15	COC(=O)C1CCN(C(c2ccc(OC)c(OC)c2)c2sc3nc(C)nn3c2O)CC1 (stereo not drawn)
16	COc1ccc(C(c2sc3nc(C)nn3c2O)N2CCc3ccccc3C2)cc1 (stereo not drawn)
17	COc1cc(C(c2sc3nc(C)nn3c2O)N2CCc3ccccc3C2)cc(OC)c1OC (stereo not drawn)
18	COc1ccc(C(c2sc3nc(C)nn3c2O)N2CCC(C(N)=O)CC2)cc1OC (stereo not drawn)
19	Cc1cc(C)n2nc(SCC(=O)Nc3cccc(C(F)(F)F)c3)nc2n1
20	CC(=O)c1ccc(S(=O)(=O)Nc2ccc(-c3cn4c(C)csc4n3)cc2)cc1
assay / entry	11	12	13	14	15	16	17	18	19	20
ALDH1A1 block	nt	9.8%	14.1µM*	1.0%	1.0%	?	?	3.6%	nt	nt
G9a inh	5.2%[59 µM]	17.1%[59 µM]	?	15.7%[59 µM]	?	3.16µM*	22.4µM*	50.1µM*	-1.1%[59 µM]	?
Sfp inh	nt	14.5%	-9.3%	43.3%	20.0%	?	-13.3%	5.1%	nt	nt
miR-21 FLuc	-1.7%	-7.4%	6.0%	-9.6%	-4.5%	1.5%	-0.3%	-1.5%	2.4%	-11.0%
JMJD2E inh	nt	-1.0%	-0.7%	5.3%	-1.3%	?	1.0%	5.2%	nt	nt
Lamin A splicing	nt	-12.7%	21.6%	?	-7.9%	-2.7%	-4.0%	-5.0%	nt	-16.5%[46 µM]

21	CCOc1cc2[nH]c(=S)n(CC3CCCN3CC)c(=O)c2cc1OCC (stereo not drawn)
22	COc1cc2[nH]c(=S)n(CCCN3CCOCC3)c(=O)c2cc1OC
23	COc1cc2[nH]c(=S)n(CCN3CCOCC3)c(=O)c2cc1OC
24	COCCn1c(=S)[nH]c2cc(OC)c(OC)cc2c1=O
25	COCCn1c(=O)c2cc3c(=O)n(CCOC)c(=O)c3cc2c1=O
26	CCC1CCCCN1CCn1c(=S)[nH]c2cc(OC)c(OC)cc2c1=O (stereo not drawn)
27	CCc1ccc(C(C(=O)NC2CCCC2)N(C(=O)/C=C/C(=O)Nc2cc(C)on2)c2ccccc2C)cc1 (stereo not drawn)
28	Cc1ccc(C(=O)O)cc1NC(=S)NC(=O)c1ccc(-c2ccccc2)cc1
29	CC(C)NC(=S)NC(=O)c1ccc(-c2ccccc2)cc1
30	O=C(Cc1cccc2ccccc12)NC(=S)Nc1cccc(C(=O)O)c1
assay / entry	21	22	23	24	25	26	27	28	29	30
ALDH1A1 block	?	-3.3%	-15.1%	31.6µM*	17.8µM*	-3.5%	11.4%	14.1µM*	?	-6.7%
G9a inh	?	?	?	?	2.0%[59 µM]	50.1µM*	-3.7%[59 µM]	14.1µM*	39.8µM*	15.8µM*
Sfp inh	8.3%	?	17.8µM*	-21.0%	20.0%	-2.0%	11.0%	-6.7%	-20.2%	2.2%
miR-21 FLuc	1.1%	0.2%	0.9%	-4.5%	0.6%	-4.2%	-5.9%	-36.2%	-4.2%	-11.3%
JMJD2E inh	-2.2%	-12.2%	-6.6%	-4.4%	-0.7%	-1.9%	8.5%	-16.3%	-2.9%	-4.4%
Lamin A splicing	-2.5%	4.7%	-21.9%	-1.5%	0.1%	-1.1%	?	?	?	nt

Some values from above.
Entry for Cc1cc2c(c(=O)n1Cc1ccccn1)C(C(C)C)C(C#N)=C(N)O2 (stereo not drawn) under miR-21 FLuc: -4.7%
Entry for CCOC(=O)C1(CC)NC(c2ccco2)C2C(=O)N(c3ccc(C)cc3)C(=O)C21 (stereo not drawn) under Lamin A splicing: 21.6%

Following part:
31	O=C(O)c1cccc(NC(=S)NC(=O)c2ccc(-c3ccccc3)cc2)c1
32	Cc1cccc(NC(=S)NC(=O)c2ccc(-c3ccccc3)cc2)n1
33	O=C1CN(C(=O)c2ccc(S(=O)(=O)N3CCCCC3)cc2)C(c2ccc(F)cc2)c2cc(Br)ccc2N1 (stereo not drawn)
34	Cc1ccc(C(=O)NC(=S)Nc2cccc(-c3nc4ccccc4s3)c2)cc1
35	Cc1n[nH]c(=O)c2c(NC(=O)CSc3ccc(F)cc3)oc(C)c12
36	Cc1n[nH]c(=O)c2c(NC(=O)COC(=O)c3cc(F)cc(F)c3)oc(C)c12
37	CC(=O)Nc1ccc(SCC(=O)Nc2oc(C)c3c(C)n[nH]c(=O)c23)cc1
38	Cc1cc(C)c(C)c(SCC(=O)Nc2oc(C)c3c(C)n[nH]c(=O)c23)c1C
39	COC(=O)CCSc1nc(N2CCOCC2)c2c(c1C#N)CC(C)(C)OC2
40	CC(Sc1nc(N2CCOCC2)c2c(c1C#N)CC(C)(C)OC2)C(=O)Nc1ccccc1 (stereo not drawn)
41	CC(C)CCSc1nc(N2CCOCC2)c2c(c1C#N)CC(C)(C)OC2
assay / entry	31	32	33	34	35	36	37	38	39	40	41
ALDH1A1 block	25.1µM*	nt	nt	11.2µM*	nt	nt	nt	nt	nt	-6.4%	-14.4%
G9a inh	35.5µM*	-0.9%	?	14.2%[59 µM]	-49.7%	44.7µM*	50.1µM*	3.98µM*	11.7%[2.33 µM]	5.62µM*	29.0%
Sfp inh	-3.8%	18.3%	nt	-2.7%	nt	nt	nt	nt	79.4µM*	-13.0%	?
miR-21 FLuc	-13.4%	-51.5%	18.0%	-30.0%	nt	nt	nt	nt	-4.3%	-13.1%	-20.8%
JMJD2E inh	-13.5%	nt	nt	-13.1%	nt	nt	nt	nt	nt	?	-12.0%
Lamin A splicing	-12.6%[46 µM]	nt	nt	-3.1%	nt	nt	nt	nt	nt	-11.5%	13.5%
